# Laboratory results published in US10328077B2 (CELGENE CORPORATION, priority 2016, dated 2019).
# Test system: LXFS 573 SCLC patient-derived xenograft
# Assay: LXFS 573 SCLC PDX, Compound A alone and in combination with etoposide (TGD)
# Conditions: Etoposide 24 mg/kg/day SC days 1-3 + vehicle; Day 133; N=8
substance,measurement,value
etoposide,"SS, number of study survivors",0
